Biological target: SP-A binding protein on type II cell membranes (SP-A receptor) of rat alveolar epithelial type II cells (rat)

% Lung Surfactant Secretion in 2 hours (% Lung Surfactant Secretion in 2 hours): 0.9
Substance: SP-A purified from rat lung surfactant (from UniProt P08427) (ligand)
